The values below are quoted from earlier work in patent publication US20100168443A1, “Ethoid-Containing Compounds, Methods for Preparing Ethoid-Containing Compounds, and Methods of Use” (UNIVERSITY OF VIRGINIA PATENT FOUNDATION, priority 2006, published 2010).

The chains behind the UniProt entries cited, without tags or fusion partners. Where a name states a change or a piece, a line headed by the entry shows the natural chain unless it says otherwise.
UniProt P28336: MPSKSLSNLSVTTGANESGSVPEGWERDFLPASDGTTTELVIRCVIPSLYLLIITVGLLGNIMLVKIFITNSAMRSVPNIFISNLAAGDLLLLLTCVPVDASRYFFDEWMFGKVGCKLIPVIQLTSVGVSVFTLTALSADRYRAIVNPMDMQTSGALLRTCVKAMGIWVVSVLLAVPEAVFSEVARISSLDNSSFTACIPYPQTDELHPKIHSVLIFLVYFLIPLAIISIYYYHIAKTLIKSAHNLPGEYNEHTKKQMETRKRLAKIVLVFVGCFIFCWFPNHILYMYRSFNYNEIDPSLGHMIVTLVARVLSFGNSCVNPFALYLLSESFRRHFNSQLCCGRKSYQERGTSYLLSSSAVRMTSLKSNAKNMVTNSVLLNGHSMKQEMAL

As a reminder, the Kd is a measure of binding affinity in units of concentration.

This series concerns the target T1, Bombesin BB1 HUMAN receptor (Homo sapiens, UniProt P28336).
T1 construct: host or cells: CHO
The note with it: radioligand; Human recombinant (CHO cells); cited from earlier work.

In the case of [125I] (Tyr4)-Bombesin, the Kd was 0.045 nM.
